Bounds are passed on as bounds.

By UniProt entry, the sequences of proteins in these tests, tags left out. Residues count along the entry.
UniProt P23219, 24-599: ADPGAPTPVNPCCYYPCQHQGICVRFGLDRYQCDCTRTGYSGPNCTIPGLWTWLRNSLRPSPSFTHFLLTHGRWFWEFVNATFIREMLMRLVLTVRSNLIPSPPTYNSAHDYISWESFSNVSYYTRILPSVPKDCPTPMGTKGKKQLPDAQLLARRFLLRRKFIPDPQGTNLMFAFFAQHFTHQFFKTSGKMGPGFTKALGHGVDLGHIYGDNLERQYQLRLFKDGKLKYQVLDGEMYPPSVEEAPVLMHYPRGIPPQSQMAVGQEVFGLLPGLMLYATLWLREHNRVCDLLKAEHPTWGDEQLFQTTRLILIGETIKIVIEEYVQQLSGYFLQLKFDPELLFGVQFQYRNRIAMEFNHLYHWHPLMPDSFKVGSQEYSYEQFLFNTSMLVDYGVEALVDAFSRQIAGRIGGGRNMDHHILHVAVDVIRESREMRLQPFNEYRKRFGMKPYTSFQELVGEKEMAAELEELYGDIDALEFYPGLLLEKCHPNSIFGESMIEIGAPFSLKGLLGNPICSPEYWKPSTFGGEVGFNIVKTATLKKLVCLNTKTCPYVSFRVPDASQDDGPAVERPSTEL

For this test, the target named is Human COX I (Homo sapiens, UniProt P23219). The test can be described thus: biochemical. The following applies: read-out: Human COX I ID50. Here is the method:
Evaluation of COX I and COX II activity in vitro
The COX II inhibition activity of the compounds of this invention illustrated in the Examples was determined by the following methods.
a. Preparation of recombinant COX baculoviruses
A 2.0 kb fragment containing the coding region of either human or murine COX-I or human or murine COX-II was cloned into a BamH1 site of the baculovirus transfer vector pVL1393-(Invitrogen) to generate the baculovirus transfer vectors for COX-I and COX-II in a manner similar to the method of D. R. O'Reilly et al (Baculovirus Expression Vectors: A Laboratory Manual (1992)). Recombinant baculoviruses were isolated by transfecting 4 μg of baculovirus transfer vector DNA into SF9 insect cells (2×10e8) along with 200 ng of […] baculovirus plasmid DNA by the calcium phosphate method. See M. D. Summers and G. E. Smith, A Manual of Methods for Baculovirus Vectors and Insect Cell Culture Procedures, Texas Agric. Exp. Station Bull. 1555 (1987). Recombinant viruses were purified by three rounds of plaque purification and high titer (10E7-10E8 pfu/ml) stocks of virus were prepared. […]
COX activity was assayed as PGE2 -formed/μg protein/time using an ELISA to detect the prostaglandin released. […] The PGE2 formed was measured by standard ELISA technology (Cayman Chemical).

Consider `CS(=O)(=O)c1ccc(-c2nn(CC(=O)O)c(C(F)(F)F)c2-c2ccc(F)cc2)cc1` [Example 10, [4-(4-Fluorophenyl)-3-[4-(methylsulfonyl)phenyl]-5-(trifluoromethyl)-1H-pyrazol-1-yl]acetic acid], for which the IC50 was greater than 100 µM.
